Assay results as given in patent US7407939B2, “Protein kinase inhibitors comprising ATP mimetics conjugated to peptides or peptidomimetics” (CureGenics Ltd., priority 2001, dated 2008).

How the values were obtained:
PKB = biological target: T1, PKB (Homo sapiens, UniProt P31749); assay: PKB in vitro kinase activity assay (soluble His-HA-PKB / SPA bead screening); assay type: biochemical; conditions: read-out: IC50 PKB nM; Table 1, most preferred compounds
T1 construct: His; HA; made in house
Procedure: 1. […] The enzyme activity measurement is performed as described in the assay for PKA.

PKA = biological target: T2, PKA (Bos taurus, UniProt P00517); assay: In vitro PKA kinase activity assay (kemptide / SPA beads); assay type: biochemical; conditions: read-out: IC50 PKA nM; Table 1, most preferred compounds;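 further: Cell-free assay of purified PKA catalytic subunit phosphorylating the 7-mer kemptide substrate, run in MOPS buffer with magnesium acetate and BSA, with blank wells lacking enzyme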
T2 construct: purchased Promega
Procedure: 1. […] PKA activity is assayed on a 7-mer peptide, LRRASLG, known as kemptide. The assay is carried out in 96-well plates, in a final volume of 50 μl per well. The reaction mixture includes various concentrations of the inhibitor, 50 mM MOPS, 10 mM MgAc, 0.2 mg/ml BSA, 10 μM ATP, 20 μM Kemptide and 1 μCi γ^32P ATP. Reaction is started with addition of 15 μl of the catalytic subunit of PKA diluted in 0.1 mg/ml BSA, 0.4 U/well. Two blank wells without enzyme are included in every assay. […] Reaction is stopped by addition of 12 μl 200 mM EDTA. 20 μl aliquots of the assay mixture are spotted onto 2 cm^2 phosphocellulose strips (e.g. Whatman P81) and immersed in 75 mM phosphoric acid (10 ml per sample). The phosphocellulose strips are washed 6 times. […] After air drying the strips, radiation is measured by scintillation spectrometry.

Substance	IC50 (PKB)	IC50 (PKA)
Arg-Pro-Arg-Nva-Glu-(5-mercaptoaminopropyl-isoquinoline)-Ser-Phe [PTR 6134]	217 nM	18 nM
Arg-Pro-Arg-Thr-Glu-(5-mercaptoaminopropyl-isoquinoline)-Ser-Phe [PTR 6104]	100 nM	100 nM
Arg-Pro-Arg-Thr-Glu-(bAla-5-mercaptoaminopropyl-isoquinoline)-Ser-Phe [PTR 6102]	300 nM	100 nM
Arg-Pro-Arg-Nle-Glu-(5-mercaptoaminopropyl-isoquinoline)-Ser-Phe [PTR 6136]	114 nM	11 nM
